# Laboratory results from patent publication US9174946B2, “Selective FAK inhibitors” (priority 2011, dated 2015).
# Amino acid sequences for entries named in this document (tags omitted).
# UniProt Q05397, whole entry: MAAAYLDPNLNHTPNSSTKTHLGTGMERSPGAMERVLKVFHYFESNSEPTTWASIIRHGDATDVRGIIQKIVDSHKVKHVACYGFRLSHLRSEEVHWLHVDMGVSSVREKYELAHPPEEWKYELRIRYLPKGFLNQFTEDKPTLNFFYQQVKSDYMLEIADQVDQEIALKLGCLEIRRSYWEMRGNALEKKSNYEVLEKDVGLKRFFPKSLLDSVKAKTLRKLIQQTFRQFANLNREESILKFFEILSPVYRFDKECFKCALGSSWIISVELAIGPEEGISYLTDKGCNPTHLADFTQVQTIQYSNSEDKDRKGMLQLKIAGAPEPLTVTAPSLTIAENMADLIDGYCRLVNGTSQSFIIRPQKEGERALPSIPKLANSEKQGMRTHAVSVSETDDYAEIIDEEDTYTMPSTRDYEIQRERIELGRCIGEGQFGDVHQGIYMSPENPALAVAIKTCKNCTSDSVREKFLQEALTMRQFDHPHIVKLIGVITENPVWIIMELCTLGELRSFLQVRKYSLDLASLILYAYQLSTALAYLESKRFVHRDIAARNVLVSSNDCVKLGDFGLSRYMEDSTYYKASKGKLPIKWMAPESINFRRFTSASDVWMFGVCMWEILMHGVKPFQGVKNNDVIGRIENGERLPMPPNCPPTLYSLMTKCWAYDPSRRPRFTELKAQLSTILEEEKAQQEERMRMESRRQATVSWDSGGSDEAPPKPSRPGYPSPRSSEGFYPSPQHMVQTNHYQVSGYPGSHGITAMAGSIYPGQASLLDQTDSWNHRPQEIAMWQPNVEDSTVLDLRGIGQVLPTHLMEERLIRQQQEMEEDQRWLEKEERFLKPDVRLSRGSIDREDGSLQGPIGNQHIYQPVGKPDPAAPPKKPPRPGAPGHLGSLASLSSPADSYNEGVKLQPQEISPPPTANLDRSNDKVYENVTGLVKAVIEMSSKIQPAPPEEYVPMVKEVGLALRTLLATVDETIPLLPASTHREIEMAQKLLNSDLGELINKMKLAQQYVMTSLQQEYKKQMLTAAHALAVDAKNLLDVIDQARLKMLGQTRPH
# Molecular target: T1, Y397-FAK phosphorylation (Homo sapiens, UniProt Q05397)
# T1 construct: endogenous in cells; host or cells: MDA-231-LNA cells
# Format: cell-based
# Settings: MDA-231-LNA cells; relative to control compound at 2 μM
smiles,measurement,value
"CCc1cc(C2CCN(C)CC2)ccc1Nc1ncc(C(F)(F)F)c(CCc2ccccc2CC(N)=O)n1 [Compound 9, 2-(2-(2-(2-((2-Ethyl-4-(1-methylpiperidin-4-yl)phenyl)amino)-5-(trifluoromethyl)pyrimidin-4yl)ethyl)phenyl)acetamide]",% response of control at 2 μM,112%
